Molecular target: Histamine H1 receptor (Cavia porcellus) (UniProt P31389)
Assay: Negative logarithm of receptor dissociation constant Kp was reported in guinea pig ileum whole segments.

pKp: 6.21
SMILES: NCCc1c[nH]c(CCCCC(c2ccccc2)c2ccccc2)n1
